Sequences of proteins named here, by UniProt entry; tags and fusion partners are left off.
UniProt P19020, whole entry: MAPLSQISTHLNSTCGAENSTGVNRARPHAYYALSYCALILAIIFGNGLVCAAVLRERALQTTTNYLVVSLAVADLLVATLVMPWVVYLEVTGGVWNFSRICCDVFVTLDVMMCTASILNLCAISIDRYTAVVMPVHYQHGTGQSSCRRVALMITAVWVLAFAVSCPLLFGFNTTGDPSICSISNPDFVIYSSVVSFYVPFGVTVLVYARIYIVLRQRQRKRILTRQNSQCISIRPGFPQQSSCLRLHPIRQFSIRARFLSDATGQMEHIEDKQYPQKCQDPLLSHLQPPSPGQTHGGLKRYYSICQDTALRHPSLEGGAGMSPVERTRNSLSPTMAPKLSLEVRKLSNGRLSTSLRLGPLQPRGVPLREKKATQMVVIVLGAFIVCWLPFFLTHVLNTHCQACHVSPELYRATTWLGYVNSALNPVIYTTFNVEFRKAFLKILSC
UniProt P18901, whole entry: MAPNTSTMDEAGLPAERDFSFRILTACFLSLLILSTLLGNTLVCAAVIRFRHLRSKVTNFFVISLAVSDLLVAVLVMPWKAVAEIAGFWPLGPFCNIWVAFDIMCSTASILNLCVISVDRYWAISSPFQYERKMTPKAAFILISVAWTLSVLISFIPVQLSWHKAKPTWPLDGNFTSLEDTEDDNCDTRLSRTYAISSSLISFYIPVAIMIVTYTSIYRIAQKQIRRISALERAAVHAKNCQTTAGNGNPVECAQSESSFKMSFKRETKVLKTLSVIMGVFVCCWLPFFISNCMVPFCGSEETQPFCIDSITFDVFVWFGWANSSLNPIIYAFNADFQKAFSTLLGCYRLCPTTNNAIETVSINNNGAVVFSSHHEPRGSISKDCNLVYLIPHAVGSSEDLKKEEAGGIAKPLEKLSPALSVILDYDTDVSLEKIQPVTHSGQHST
UniProt P14842, whole entry: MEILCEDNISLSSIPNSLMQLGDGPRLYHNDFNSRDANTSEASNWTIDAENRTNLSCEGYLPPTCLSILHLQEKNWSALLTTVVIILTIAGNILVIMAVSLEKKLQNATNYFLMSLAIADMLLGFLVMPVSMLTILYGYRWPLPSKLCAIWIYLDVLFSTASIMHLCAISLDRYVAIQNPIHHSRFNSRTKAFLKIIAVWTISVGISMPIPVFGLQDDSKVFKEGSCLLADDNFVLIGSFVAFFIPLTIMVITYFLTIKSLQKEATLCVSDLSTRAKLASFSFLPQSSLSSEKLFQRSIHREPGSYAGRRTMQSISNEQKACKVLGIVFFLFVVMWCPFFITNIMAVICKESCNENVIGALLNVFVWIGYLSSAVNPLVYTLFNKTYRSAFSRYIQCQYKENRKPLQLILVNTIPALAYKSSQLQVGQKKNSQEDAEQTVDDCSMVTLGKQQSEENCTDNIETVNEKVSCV
UniProt P31390, whole entry: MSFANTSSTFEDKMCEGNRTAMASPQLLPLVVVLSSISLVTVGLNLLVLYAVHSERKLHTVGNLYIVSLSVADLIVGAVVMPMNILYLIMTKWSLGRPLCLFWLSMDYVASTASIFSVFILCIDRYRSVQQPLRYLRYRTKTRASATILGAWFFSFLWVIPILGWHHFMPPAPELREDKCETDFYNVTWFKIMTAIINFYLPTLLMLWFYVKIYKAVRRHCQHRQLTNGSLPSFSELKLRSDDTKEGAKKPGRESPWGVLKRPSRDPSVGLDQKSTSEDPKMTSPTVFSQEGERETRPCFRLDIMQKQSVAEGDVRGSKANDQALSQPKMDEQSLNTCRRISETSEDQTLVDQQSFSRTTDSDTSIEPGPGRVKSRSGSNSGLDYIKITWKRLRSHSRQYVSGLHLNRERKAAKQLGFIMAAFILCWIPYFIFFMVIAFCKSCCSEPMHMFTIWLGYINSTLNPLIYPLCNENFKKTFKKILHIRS

In ChEMBL document CHEMBL1135802, “Pyrrolo[1,3]benzothiazepine-based atypical antipsychotic agents. Synthesis, structure-activity relationship, molecular modeling, and biological studies” (J Med Chem, 2002):

Columns and labels:
D(3) dopamine receptor [1] = biological target: T1, D(3) dopamine receptor (Rattus norvegicus, UniProt P19020); design: species or system Tissue
D(1A) dopamine receptor [2] = biological target: T2, D(1A) dopamine receptor (Rattus norvegicus, UniProt P18901)
[3] = biological target: T3, 5-hydroxytryptamine receptor 2A (Rattus norvegicus, UniProt P14842); assay: biochemical; type: tissue-based, Cerebral cortex
[4] = biological target: T3, 5-hydroxytryptamine receptor 2A; assay: biochemical
D(3) dopamine receptor [5] = biological target: T1, D(3) dopamine receptor; design: species or system Tissue; remark: listed apart in the source
D(3) dopamine receptor [6] = biological target: T1, D(3) dopamine receptor; design: species or system Tissue; remark: listed apart in the source
Histamine H1 receptor = Histamine H1 receptor (Rattus norvegicus, UniProt P31390); assay: biochemical; type: tissue-based, Frontal cortex
D(1A) dopamine receptor [7] = biological target: T2, D(1A) dopamine receptor; remark: listed apart in the source

| SMILES | Ki (D(3) dopamine receptor [1]) [nM] | Ki (D(1A) dopamine receptor [2]) [nM] | Ki [3] [nM] | Ki [4] [nM] | Ki (D(3) dopamine receptor [5]) [nM] | Ki (D(3) dopamine receptor [6]) [nM] | Ki (Histamine H1 receptor) [nM] | Ki (D(1A) dopamine receptor [7]) [nM] |
| --- | --- | --- | --- | --- | --- | --- | --- | --- |
| CN1CCN([C@@H]2Cn3cccc3Sc3ccccc32)CC1 (stereo in doubt; (-)-6a) | 23 | – | – | – | – | – | – | – |
| CN1CCN([C@H]2Cn3cccc3Sc3ccc(F)cc32)CC1 (stereo in doubt; (+)-6b) | – | 60 | 3.98 | 3.5 | 407 | 407 | 33 | 60.3 |
| CN1CCN([C@@H]2Cn3cccc3Sc3ccccc32)CC1 (stereo in doubt; (+)-6a) | – | – | – | – | 854 | 851 | – | – |
| CN1CCN([C@H]2Cn3cccc3Sc3ccc(Cl)cc32)CC1 | – | 22 | – | – | – | – | – | – |
| CN1CCN([C@H]2Cn3cccc3Sc3ccc(F)cc32)CC1 (stereo in doubt; (-)-6b) | – | 63 | – | 4.3 | 9.3 | 9.33 | 4.6 | – |
| CN1CCN([C@@H]2Cn3cccc3Sc3ccc(Cl)cc32)CC1 | – | – | – | – | – | – | 21.3 | – |
